pIC50: −log10 of the molar value.
Assays:
[1] = biological target: recombinant human His-tagged Tyk2 pseudokinase domain (His-TVMV-Tyk2, 575-869) (Homo sapiens, UniProt P29597); test: Probe Displacement Assay (HTRF Format); settings: read-out: Binding IC50, 0.5 nM Tyk2 pseudokinase domain, 1 h room temperature
[2] = system: IL-23 stimulated Kit225 T cells with STAT-dependent luciferase reporter; test: Kit225 T Cell Assay, IL-23 stimulated STAT-dependent luciferase reporter; settings: read-out: IL23 Kit 225 IC50, 20 ng/mL human recombinant IL-23, 5-6 hours
Experimental: (§1) Kit225 T cells with a stably-integrated STAT-dependent luciferase reporter were plated in RPMI (Gibco) containing 10% heat-inactivated FBS (Gibco) and 100 U/mL PenStrep (Gibco). The cells were then stimulated with either 20 ng/mL human recombinant IL-23 or 200 U/mL human recombinant IFNα (PBL InterferonSource) for 5-6 hours. Luciferase expression was measured using the STEADY-GLO® Luciferase Assay System (Promega) according to the manufacturer's instructions. Inhibition data were calculated by comparison to no inhibitor control wells for 0% inhibition and non-stimulated control wells for 100% inhibition. Dose response curves were generated to determine the concentration required to inhibit 50% of cellular response (IC50) as derived by non-linear regression analysis.

Protein sequences, listed by entry. Tags and fused reporters are not part of them. Chains listed by the source or under a name are the forms on record and can include a tag or linker. Residues count along the entry.
UniProt P29597, 575-869 with tags or gaps: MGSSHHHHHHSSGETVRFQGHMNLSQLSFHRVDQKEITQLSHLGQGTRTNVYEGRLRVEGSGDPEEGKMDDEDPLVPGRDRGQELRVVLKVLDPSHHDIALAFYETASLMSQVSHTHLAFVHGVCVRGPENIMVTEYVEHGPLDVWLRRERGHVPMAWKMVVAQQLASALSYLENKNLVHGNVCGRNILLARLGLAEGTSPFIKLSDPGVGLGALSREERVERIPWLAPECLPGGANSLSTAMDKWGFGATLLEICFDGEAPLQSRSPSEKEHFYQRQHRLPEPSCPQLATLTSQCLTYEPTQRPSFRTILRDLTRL

[3] = system: IFNα stimulated Kit225 T cells with STAT-dependent luciferase reporter; test: Kit225 T Cell Assay, IFNα stimulated STAT-dependent luciferase reporter; settings: read-out: IFN[…] Kit 225 IC50, 200 U/mL human recombinant IFNα, 5-6 hours
Experimental: as §1

With `[2H]C([2H])([2H])NC(=O)c1nnc(Nc2ccc(-c3c(F)cccc3F)cn2)cc1Nc1ncccc1P(C)(C)=O` the pIC50 [1] was 9.32, the pIC50 [2] was 6.37 and the pIC50 [3] was 6.40.

Source: patent publication US10294256B2, “Phosphine oxide alkyl amide substituted heteroaryl compounds as modulators of IL-12, IL-23 and/or IFN alpha responses” (BRISTOL-MYERS SQUIBB COMPANY, priority 2016, dated 2019)
